Literature values as cited in PMC8716319 (Toxicology, 2020).
Marks after values point to notes of the source that are not given here.

System: human liver microsomes
Details: 5-hydroxymethyl-meloxicam, ref Chesne et al., 1998, cited from earlier work

SMILES: Cc1cnc(NC(=O)C2=C(O)c3ccccc3S(=O)(=O)N2C)s1 [meloxicam]
- Vmax1 (human liver microsomes): 34 ± 24^d pmol/min/mg protein
- Vmax2 (low affinity activity): 140 ± 84^d pmol/min/mg protein
